According to US8440627B2, “G protein coupled receptor agonists and antagonists and methods of use” (Tufts Medical Center, Inc., priority 2004, dated 2013):

How the values were obtained:
human platelets = test: Human platelet aggregation to thrombin; type: cell-based
[1] = tested on: carotid arteries in guinea pigs; test: Carotid artery injury (FeCl3) arterial thrombosis model; type: in vivo; conditions: 0.18 mg/kg; from 13 min; not significant
Method: FIG. 26 is a bar graph illustrating a combination of bivalirudin plus P4pal-i1 blocking occlusion of carotid arteries in guinea pigs. Guinea pigs were treated with bivalirudin, P4pal-i1 and/or P1pal-7 (n=3-5 for each treatment group) 5 min prior to injury of the carotid artery with FeCl3 as described in Example 14. P values relative to vehicle-treated are indicated at the bottom.
Arterial thrombosis in guinea pigs is prevented using a combination of bivalirudin and a PAR4 pepducin. A standard carotid artery injury model to assess the efficacy of simultaneous administration of bivalirudin and the PAR4 pepducin on arterial thrombosis in guinea pigs was used. Unlike mice which lack PAR1 on their platelets, guinea pigs share functional similarity with human platelets and express both PAR1 and PAR4. Consistent with earlier results using hirudin, bivalirudin alone (0.18 mg/kg) prolonged the mean arterial occlusion time from 13 min to 20 min, though this was not significant (FIG. 26).

thrombin = thrombin (Homo sapiens, UniProt P00734); conditions: cited from earlier work

## CC[C@H](C)[C@H](NC(=O)[C@H](CCC(=O)O)NC(=O)[C@H](CCC(=O)O)NC(=O)[C@H](Cc1ccccc1)NC(=O)[C@H](CC(=O)O)NC(=O)CNC(=O)[C@H](CC(N)=O)NC(=O)CNC(=O)CNC(=O)CNC(=O)CNC(=O)[C@@H]1CCCN1C(=O)[C@H](CCCNC(=N)N)NC(=O)[C@@H]1CCCN1C(=O)[C@H](N)Cc1ccccc1)C(=O)N1CCC[C@H]1C(=O)N[C@@H](CCC(=O)O)C(=O)N[C@@H](CCC(=O)O)C(=O)N[C@@H](Cc1ccc(O)cc1)C(=O)N[C@@H](CC(C)C)C(=O)O [bivalirudin]
Human platelets
  thrombin activation of PAR1 and PAR4-dependent platelet aggregation: efficacious in blocking thrombin activation
[1]
  mean arterial occlusion time: 20 min
thrombin
  affinity for thrombin: nanomolar affinity
